From PMC10708259 (Molecules, 2023)

Protein sequences, listed by entry. Tags and fused reporters are not part of them. Lines headed by an entry give the natural chain unless they say otherwise; changes in a name come on top.
UniProt P41145: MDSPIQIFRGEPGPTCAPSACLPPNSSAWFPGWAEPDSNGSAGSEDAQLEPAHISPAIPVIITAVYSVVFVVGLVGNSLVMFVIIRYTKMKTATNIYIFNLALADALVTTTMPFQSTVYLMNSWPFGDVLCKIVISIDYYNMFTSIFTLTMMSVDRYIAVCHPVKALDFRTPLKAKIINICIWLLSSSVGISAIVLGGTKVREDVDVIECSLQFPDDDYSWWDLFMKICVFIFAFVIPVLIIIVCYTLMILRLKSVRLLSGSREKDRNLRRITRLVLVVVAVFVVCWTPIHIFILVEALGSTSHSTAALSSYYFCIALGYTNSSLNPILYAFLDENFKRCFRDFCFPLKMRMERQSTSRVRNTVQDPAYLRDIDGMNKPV

Target: human κ-opioid receptor (OPRK1) (Homo sapiens, UniProt P41145)
Assay: Forskolin-induced cAMP accumulation assay, KOR antagonist mode
Settings: versus EC90 of U50488H; Imax normalized to nor-BNI

Oc1ccc2c3c1O[C@H]1c4[nH]c5c(c4C[C@@]4(O)[C@@H](C2)N(CC2CC2)CC[C@]314)C[C@@]1(O)[C@H]2Cc3ccc(O)c4c3[C@@]1(CCN2CC1CC1)[C@H]5O4 [nor-BNI, reference compound]
KOR Antagonist %Imax ± SEM: 102 ± 1%
